Here are results for one molecule from ChEMBL document CHEMBL3585347, “Isolation of cholinesterase and β-secretase 1 inhibiting compounds from Lycopodiella cernua” (Bioorg Med Chem, 2015).

Sequences of proteins named here, by UniProt entry; tags and fusion partners are left off. A change or cut given only in a name is not applied to a line headed by its entry.
UniProt P22303: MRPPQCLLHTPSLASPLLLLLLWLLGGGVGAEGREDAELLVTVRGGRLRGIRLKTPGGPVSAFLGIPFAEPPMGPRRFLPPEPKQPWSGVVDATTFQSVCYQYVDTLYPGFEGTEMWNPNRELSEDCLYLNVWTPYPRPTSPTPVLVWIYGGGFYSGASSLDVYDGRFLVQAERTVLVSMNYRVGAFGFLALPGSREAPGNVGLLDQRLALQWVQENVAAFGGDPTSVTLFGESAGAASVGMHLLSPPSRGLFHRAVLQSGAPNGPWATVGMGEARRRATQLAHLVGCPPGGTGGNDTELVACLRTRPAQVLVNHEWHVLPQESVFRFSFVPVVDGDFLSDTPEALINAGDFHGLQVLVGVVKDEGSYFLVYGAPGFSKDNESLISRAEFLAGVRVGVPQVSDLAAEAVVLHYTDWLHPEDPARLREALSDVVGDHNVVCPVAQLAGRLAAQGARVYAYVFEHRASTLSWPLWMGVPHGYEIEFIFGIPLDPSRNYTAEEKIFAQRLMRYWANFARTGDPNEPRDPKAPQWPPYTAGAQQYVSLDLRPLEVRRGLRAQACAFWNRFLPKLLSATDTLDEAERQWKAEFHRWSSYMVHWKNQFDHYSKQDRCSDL

The term IC50 denotes the concentration at which inhibition is half-maximal.

The test addresses Acetylcholinesterase (Homo sapiens, UniProt P22303). In words: Inhibition of AChE (unknown origin) using acetylthiocholine as substrate assessed as substrate hydrolysis by spectrophotometric/Ellman method. For orientation: DTNB colorimetry detects thiols as they appear.

For the molecule `COc1ccc2cc3[n+](cc2c1OC)CCc1cc2c(cc1-3)OCO2` [BERBERINE], the IC50 was 100 nM.
